Measured values from PubChem BioAssay AID920 (The Scripps Research Institute Molecular Screening Center, 2007).
The list shows a part of the results, in another mix than the full data. Some tests of the compounds listed are not included; inactive here does not mean inactive elsewhere. Active and inactive are the calls of the source.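 Rule for the calls: active = inhibition above a set limit, the mean inhibition across all tested compounds plus 3 SD (cut at about 34% in these data); inactive = the rest.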

Assay: blockers of IFN-gamma driven STAT1 reporter – cell-based, HTS, luciferase reporter, primary screen (AID 920);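 note: 0% = IFN-gamma with DMSO and 100% = IFN-gamma with 300 µM nifuroxazide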
Conditions: NIH 3T3 STAT1-luciferase reporter, luminescence, at 5.5 µM, stronger effect = higher value
With `CN(C)C1CCCC1OC(=O)C(O)(c1ccccc1)c1ccccc1` (centres undefined) the inhibition was inactive: 4.06%.
With `Cc1ccccc1C(=O)NCC1(N2CCCCC2)CCCCC1` the inhibition was inactive: 0.72%.
With `C=CCN1CCN(CCOC(=O)C(O)(c2ccccc2)c2ccccc2)CC1` the inhibition was inactive: 1.6%.
With `CCN1CCCC(OC(=O)C2(O)c3ccccc3C=Cc3ccccc32)C1` (centres undefined) the inhibition was inactive: -4.66%.
With `O=C(NCC1(N2CCCCC2)CCCCC1)c1cc([N+](=O)[O-])ccc1Cl` the inhibition was inactive: 4.58%.
With `CC(C)N1C(=O)CC2(CCN(CCOC(=O)C(O)(c3ccccc3)c3ccccc3)CC2)C1=O` the inhibition was inactive: 0.63%.
With `O=C(OC1CN2CCC1CC2)C(CO)(c1ccccc1)c1ccccc1` (centres undefined) the inhibition was inactive: -5.43%.
In the case of `CN(C)c1cccc(C(=O)NCC2(N(C)C)CCCCC2)c1`, the inhibition is reported as inactive: -0.88%.
With `COc1cccc(C(=O)NCC2(N3CCCCC3)CCCCC2)c1` the inhibition was inactive: 0.15%.
